Values of other authors, collected in US20160317408A1, “KERATIN FIBRE DYEING METHOD” (ALFA PARF GROUP S.p.A., priority 2015, published 2016).

Key:
[1] = value assigned from SCCS memorandum class; composition containing the dye
[2] = Opinion SCCS/1409/11

Question: For Nc1ccc(O)cc1 [p-aminophenol], which “individual sensitisation index value of the dye” value [1] is on record?
Answer: 1

Question: And the sensitising power classification [2]?
Answer: strong
